In article PMC10222378 (Pharmaceuticals, 2023):
Entries after “also recorded” stand apart in the source; their conditions may differ.

Tested on: human lymphocytes
Assay: CFSE lymphocyte proliferation assay after PHA activation
Assay type: cell-based
Experimental: In this method, following the loading of cells with CFSE dye, each round of cell division is apparent by the reduced dye content and consequent lower fluorescence intensity of the daughter cells. […] Peripheral blood mononuclear cells (PBMCs) were isolated from the heparinized blood of healthy donors (n = 3) using the Ficoll–Hypaque separation method. […] The cells were grown in a humidified chamber at 37 °C and 5% CO2 for 6 days. As a negative control, unstimulated CFSE-labeled PBMCs were cultured in the same condition. […] After 6 days of proliferation, the CFSE-labeled cells were collected and analyzed by flow cytometry in an ACEA NovoCyte 2000R cytometer (Agilent, Santa Clara, CA, USA).

N=C(N)Nc1nc2ccc(Cl)cc2[nH]1 [ClGBI, 5-chloro-2-guanidinobenzimidazole]
inhibitory effect on lymphocyte proliferation: much weaker; also recorded: completely absent
